The values below come from ChEMBL document CHEMBL1122880, “Hybromet: a ligand for purifying opioid receptors” (1985).

Protein sequences, listed by entry. Tags and fused reporters are not part of them. Lines headed by an entry give the natural chain unless they say otherwise; changes in a name come on top.
UniProt P33535: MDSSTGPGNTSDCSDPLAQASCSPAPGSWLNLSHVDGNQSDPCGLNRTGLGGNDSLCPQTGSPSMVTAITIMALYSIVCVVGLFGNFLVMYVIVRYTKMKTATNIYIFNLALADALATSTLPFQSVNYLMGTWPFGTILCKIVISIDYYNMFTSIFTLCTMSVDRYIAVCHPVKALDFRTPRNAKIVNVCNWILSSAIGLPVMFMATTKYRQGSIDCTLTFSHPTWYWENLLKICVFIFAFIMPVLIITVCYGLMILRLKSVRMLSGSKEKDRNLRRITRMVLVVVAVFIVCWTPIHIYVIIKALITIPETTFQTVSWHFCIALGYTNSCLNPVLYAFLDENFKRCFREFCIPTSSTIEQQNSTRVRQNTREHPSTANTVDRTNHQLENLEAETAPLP
UniProt P33533: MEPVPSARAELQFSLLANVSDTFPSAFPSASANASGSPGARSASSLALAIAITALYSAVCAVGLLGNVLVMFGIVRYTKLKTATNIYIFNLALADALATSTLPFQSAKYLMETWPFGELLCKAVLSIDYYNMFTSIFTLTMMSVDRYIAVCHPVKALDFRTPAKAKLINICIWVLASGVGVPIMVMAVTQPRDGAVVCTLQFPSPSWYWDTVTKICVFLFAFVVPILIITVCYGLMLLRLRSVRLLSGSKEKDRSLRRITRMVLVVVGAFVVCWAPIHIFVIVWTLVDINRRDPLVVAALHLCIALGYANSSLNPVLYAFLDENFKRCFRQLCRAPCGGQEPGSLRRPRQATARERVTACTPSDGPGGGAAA

pIC50: −log10 of the molar value.

As a reminder, the pIC50 is the negative decadic logarithm of the IC50, by convention in mol/L. A low value points to a large IC50.

One experiment concerns the target Mu-type opioid receptor (Rattus norvegicus, UniProt P33535). Nature of the experiment: Evaluated for the inhibition of [3H]naltrexone binding to Opioid receptor mu 1 in rat brain homogenates.
The target of experiment [1] is Delta-type opioid receptor (Rattus norvegicus, UniProt P33533). As to the kind of experiment: Evaluated for the inhibition of [3H]DADLE binding to Opioid receptor delta 1 in rat brain homogenates.

With “7alpha-[(1R)-1-Hydroxy1-methyl-3-[4-[3-(bromomercurio)-2-methoxypropoxy]phenyl]-6,14-endo-ethenotetrahydro-N-(cyclopropylmethyl)northebaine]”, the negative-log IC50 (pIC50) (on Mu-type opioid receptor; in experiment [1]) was 7.00 in each case.

Consider HYBROMET, for which the pIC50 at Mu-type opioid receptor was 7.02; in experiment [1], 6.60.
